Laboratory results taken from patent US9259479B2, “Treatment for comorbid diabetes with chronic kidney disease” (Eli Lilly and Company, priority 2012, dated 2016).
Where two headings read alike, the source gives them in different places. Marks after values point to notes of the source that are not given here.

Key:
[1] = 5/6 nephrectomized rat study: pharmacokinetics after intravenous injection; assay type: in vivo, Sprague Dawley male rats; details: for AUC(0-∞) / CL (clearance) / Vss (steady-state volume of distribution) / C0: 10 nmol/kg IV, mean; for C0: read-out: C0 (concentration at time zero)
[2] = for AUC(0-∞) / CL/F / Dose-normalized AUC(0-∞) / Dose-normalized Cmax / Vss/F / t1/2 / Tmax / Cmax: single SC 2.9 nmol/kg; for Tmax: median; for Cmax: serum
[3] = Pharmacokinetic comparison in STZ-treated diabetic rats, single SC injection
[4] = mild renal impairment, geometric mean
[5] = moderate renal impairment, geometric mean
[6] = normal renal function, geometric mean
[7] = severe renal impairment, geometric mean
[8] = single dose, cohorts by renal function
[9] = hex (hexameric, Zn/m-cresol) formulation, SC 9.3 nmol/kg
[10] = hex (hexameric, Zn/m-cresol) formulation, SC 56.8 nmol/kg
[11] = hex (hexameric, Zn/m-cresol) formulation, SC 93 nmol/kg
[12] = hex (hexameric, Zn/m-cresol) formulation, SC 568 nmol/kg
[13] = mono (monomeric, PBS) formulation, SC 9.3 nmol/kg
[14] = mono (monomeric, PBS) formulation, SC 56.8 nmol/kg
[15] = mono (monomeric, PBS) formulation, SC 93 nmol/kg
[16] = mono (monomeric, PBS) formulation, SC 568 nmol/kg

In the case of “PEG20 kDa-LysB28 insulin lispro [PEG20kDa-LysB28 insulin lispro]”, the “AUC(0-∞)” value ([1]; 5/6 nephrectomized rats) is reported as 0.305 µM·h, the “CL (clearance)” value ([1]; 5/6 nephrectomized rats) is reported as 0.55 mL/min/kg and the “Vss (steady-state volume of distribution)” value ([1]; 5/6 nephrectomized rats) is reported as 0.050 L/kg. The C0 ([1]; 5/6 nephrectomized rats) was 295 nM, the “impact of nephrectomy on clearance” value ([1]; 5/6 nephrectomized vs sham rats) was “no statistically significant impact of nephrectomy” and the “statistical difference of PK parameters between 5/6 and sham” value ([1]; 5/6 nephrectomized vs sham rats, table footnote) was “None of PEG(20 kDa)-insulin lispro parameters are statistically significantly different”. For the same substance, the “AUC(0-∞)” value ([1]; sham rats) was 0.287 µM·h, the “CL (clearance)” value ([1]; sham rats) was 0.583 mL/min/kg and the “Vss (steady-state volume of distribution)” value ([1]; sham rats) was 0.059 L/kg. The C0 ([1]; sham rats) was 239 nM, the “Fraction of Dialysis Elimination” value ([2]; ESRD, hemodialysis, high-flux polysulfone membranes, geometric mean) was 0.128^c and the “AUC(0-∞)” value ([2]; ESRD, geometric mean) was 0.0734 µM·h. For the same substance, the CL/F ([2]; ESRD, geometric mean) was 3.10 L/h, the “Dose-normalized AUC(0-∞)” value ([2]; ESRD, geometric mean) was 0.323 pmol · hr/L/pmol and the “Dose-normalized Cmax” value ([2]; ESRD, geometric mean) was 0.00518 pmol/L/pmol. The Vss/F ([2]; ESRD, geometric mean) was 210 L, the t1/2 ([2]; ESRD, geometric mean) was 45.7 h and the Tmax ([2]; ESRD) was 24.00 h. The Cmax ([2]; ESRD, geometric mean) was 1.18 nM, the “AUC(0-∞)” value [2, 4] was 0.11 µM·h and the CL/F [2, 4] was 2.21 L/h. The “Dose-normalized AUC(0-∞)” value [2, 4] was 0.452 pmol · hr/L/pmol, the “Dose-normalized Cmax” value [2, 4] was 0.00863 pmol/L/pmol and the Vss/F [2, 4] was 121 L. It also gave a t1/2 [2, 4] of 37.2 h, a Tmax ([2]; mild renal impairment) of 12.00 h and a Cmax [2, 4] of 2.09 nM. For the same substance, the “AUC(0-∞)” value [2, 5] was 0.0904 µM·h, the CL/F [2, 5] was 2.33 L/h and the “Dose-normalized AUC(0-∞)” value [2, 5] was 0.429 pmol · hr/L/pmol. For the same substance, the “Dose-normalized Cmax” value [2, 5] was 0.00623 pmol/L/pmol, the Vss/F [2, 5] was 154 L and the t1/2 [2, 5] was 43.7 h. For the same substance, the Tmax ([2]; moderate renal impairment) was 24.01 h, the Cmax [2, 5] was 1.31 nM and the “AUC(0-∞)” value [2, 6] was 0.0841 µM·h. The CL/F [2, 6] was 2.84 L/h, the “Dose-normalized AUC(0-∞)” value [2, 6] was 0.352 pmol · hr/L/pmol and the “Dose-normalized Cmax” value [2, 6] was 0.00713 pmol/L/pmol. It also gave a Vss/F [2, 6] of 142 L, a t1/2 [2, 6] of 34.9 h and a Tmax ([2]; normal renal function) of 12.00 h. The Cmax [2, 6] was 1.7 nM, the “AUC(0-∞)” value [2, 7] was 0.0824 µM·h and the CL/F [2, 7] was 2.36 L/h. The “Dose-normalized AUC(0-∞)” value [2, 7] was 0.424 pmol · hr/L/pmol, the “Dose-normalized Cmax” value [2, 7] was 0.00532 pmol/L/pmol and the Vss/F [2, 7] was 171 L. It also gave a t1/2 [2, 7] of 42.4 h, a Tmax ([2]; severe renal impairment) of 30.00 h and a Cmax [2, 7] of 1.03 nM. For the same substance, the “half-life (t1/2) across the cohorts” value [2, 8] was “statistically similar across the cohorts”, the “time-course profile of serum concentration across cohorts” value [2, 8] was “statistically similar in each cohort of subjects” and the AUC [3, 9] was 0.075 ± 0.0025 µM·h. For the same substance, the CL/F [3, 9] was 2.07 ± 0.067 mL/min/kg, the Cmax [3, 9] was 2.4 ± 0.3 nM and the Tmax [3, 9] was 12 ± 0 h. For the same substance, the AUC [3, 10] was 0.281 ± 0.016 µM·h, the CL/F [3, 10] was 3.33 ± 0.17 mL/min/kg and the Cmax [3, 10] was 12.4 ± 0.7 nM. For the same substance, the Tmax [3, 10] was 9.0 ± 3.5 h, the AUC [3, 11] was 0.541 ± 0.135 µM·h and the CL/F [3, 11] was 3 ± 0.67 mL/min/kg. It also gave a Cmax [3, 11] of 35 ± 12 nM, a Tmax [3, 11] of 12 ± 0 h and an AUC [3, 12] of 7.45 ± 0.34 µM·h. For the same substance, the CL/F [3, 12] was 1.27 ± 0.067 mL/min/kg, the Cmax [3, 12] was 323 ± 48 nM and the Tmax [3, 12] was 12 ± 0 h. The AUC [3, 13] was 0.0409 ± 0.0075 µM·h, the CL/F [3, 13] was 3.83 ± 0.67 mL/min/kg and the Cmax [3, 13] was 1.6 ± 0.4 nM. The Tmax [3, 13] was 9.0 ± 3.5 h, the AUC [3, 14] was 0.228 ± 0.024 µM·h and the CL/F [3, 14] was 4.17 ± 0.5 mL/min/kg. For the same substance, the Cmax [3, 14] was 11.4 ± 1.1 nM, the Tmax [3, 14] was 10.5 ± 3.0 h and the AUC [3, 15] was 0.506 ± 0.122 µM·h. It also gave a CL/F [3, 15] of 3.17 ± 0.67 mL/min/kg, a Cmax [3, 15] of 26.4 ± 7 nM and a Tmax [3, 15] of 10.5 ± 3.0 h. The AUC [3, 16] was 6.31 ± 1.7 µM·h, the CL/F [3, 16] was 1.6 ± 0.467 mL/min/kg and the Cmax [3, 16] was 281 ± 96 nM. For the same substance, the Tmax [3, 16] was 12 ± 0 h and the “PK profile of the two molecules compared” value ([3]; monomeric and hexameric formulation conditions) was “statistically similar”.
